Test results reported in patent US11834463B2, “High affinity macrocyclic FKB51-inhibitors for treatment of psychiatric disorders” (priority 2020, dated 2023).

Molecular target: T1, FKBP51FK1 (Homo sapiens, UniProt Q13451)
T1 sequence (Q13451 42-130 limits assumed): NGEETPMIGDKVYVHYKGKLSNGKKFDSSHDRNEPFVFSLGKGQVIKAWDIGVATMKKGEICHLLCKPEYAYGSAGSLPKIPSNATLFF
Assay: biochemical
Conditions: FKBP51FK1 Ki [μM], Table 2; [a] standard error from three, [c] error from two independent measurements
Description: All macrocyclic compounds were tested in a competitive fluorescence polarization assay for binding towards FKBP51 as well as the homologs FKBP12, FKBP12.6 and FKBP52 (Table 1).
Example 8: […] of the Macrocyclic FKBP51 Ligands by SPPS

Row | SMILES | Ki [µM]
1 | COc1ccc(CC[C@H]2OC(=O)[C@@H]3CCCCN3C(=O)[C@@H](C3CCCCC3)NC(=O)[C@H](C)NC(=O)COc3cccc2c3)cc1OC [Compound 91, (2R,5S,12R,15S)-12-cyclohexyl-2-[2-(3,4-dimethoxyphenyl)ethyl]-15-methyl-3,19-dioxa-10,13,16-triazatricyclo[18.3.1.0^5,10]tetracosa-1(24),20,22-triene-4,11,14,17-tetrone] | 17
2 | COc1ccc(CC[C@H]2OC(=O)[C@@H]3CCCCN3C(=O)[C@@H](C3CCCCC3)NC(=O)[C@@H]3CCCN3C(=O)COc3cccc2c3)cc1OC [Compound 92, (9S,12R,19S,22R)-12-cyclohexyl-22-[2-(3,4-dimethoxyphenyl)ethyl]-2,21-dioxa-5,11,14-triazatetracyclo[21.3.1.0^5,9.0^14,19]heptacosa-1(26),23(27),24-triene-4,10,13,20-tetrone] | 5.1
